Drawing on patent publication US11066414B2, “Cot modulators and methods of use thereof” (Gilead Sciences, Inc., priority 2015, dated 2021), this text covers EC50 and IC50 for 20 compounds.

Amino acid sequences for entries named in this document (tags omitted). Residues count along the entry.
UniProt P41279, 30-397: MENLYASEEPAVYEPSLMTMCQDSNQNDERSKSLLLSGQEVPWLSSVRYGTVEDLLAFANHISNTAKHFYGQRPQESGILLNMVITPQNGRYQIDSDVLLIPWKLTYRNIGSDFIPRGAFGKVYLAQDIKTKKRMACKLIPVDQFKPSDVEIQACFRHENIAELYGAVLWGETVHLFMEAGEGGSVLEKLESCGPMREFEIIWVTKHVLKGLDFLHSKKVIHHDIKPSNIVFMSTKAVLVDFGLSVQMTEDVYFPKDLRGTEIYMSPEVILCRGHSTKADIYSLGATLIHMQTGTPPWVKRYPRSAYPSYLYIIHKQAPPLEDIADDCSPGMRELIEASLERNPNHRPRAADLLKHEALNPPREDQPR

Like-named read-outs stand apart in the source and are kept apart here.

In assay [1] the test system is TNFα. Description: Cot Monocyte TNFα Cell Based Assay.
The target in assay [2] is Human Cot (Homo sapiens (Human), UniProt P41279). Description: High Throughput Cot Biochemical Assay.
Setting [3] is: Homo sapiens, Monocyte, read-out: EC50 TNF, LPS-stimulated human monocytes, TNFα.
Where [4] appears, read: read-out: EC50 TNF, LPS-stimulated human monocytes, TNFα.
Setting [5] is: IC50 HTRF, Cot HTRF (TR-FRET) biochemical assay.
[6] abbreviates: IC50 HTRF, Cot HTRF (TR-FRET KinEASE) biochemical assay, 400 μM ATP.
Where [7] appears, read: read-out: IC50 HTRF, Cot HTRF (TR-FRET) biochemical assay.

By EC50 is commonly meant the concentration that produces a half-maximal response. As for `Cc1nc(F)ccc1[C@H](Nc1cc(Cl)c2ncc(C#N)c(NCC(C)(C)C)c2c1)c1cn(C2(C#N)CC2)nn1` [Example 476, (S)-8-chloro-6-(((1-(1-cyanocyclopropyl)-1H-1,2,3-triazol-4-yl)(6-fluoro-2-methylpyridin-3-yl)methyl)amino)-4-(neopentylamino)-quinoline-3-carbonitrile], the EC50 in assay [1] (setting [3]) is 0.071 µM.

Turning to `Cc1ncccc1[C@H](Nc1cc(Cl)c2ncc(C#N)c(N[C@H](CCC#N)c3ccccc3)c2c1)c1cn(C2CC2)nn1` [Example 74, 8-chloro-4-(((R)-3-cyano-1-phenylpropyl)amino)-6-(((S)-(1-cyclopropyl-1H-1,2,3-triazol-4-yl)(2-methylpyridin-3-yl)methyl)amino)-quinoline-3-carbonitrile], the EC50 in assay [1] (setting [3]) was 0.014 µM.

With `CC(C)(C)CNc1c(C#N)cnc2c(C#N)cc(N[C@H](c3cn(C4(C(F)(F)F)CC4)nn3)c3csc4cnccc34)cc12` [Example 855, (S)-4-(neopentylamino)-6-((thieno[2,3-c]pyridin-3-yl(1-(1-(trifluoro-methyl)cyclopropyl)-1H-1,2,3-triazol-4-yl)methyl)-amino)quinoline-3,8-dicarbonitrile], the EC50 in assay [1] (Homo sapiens, Monocyte, read-out: EC50 TNF, LPS-stimulated human monocytes, TNFα TR-FRET) was 0.053 µM.

Take `Cc1n[nH]c2cccc([C@H](Nc3cc(C#N)c4ncc(C#N)c(NCC(C)(C)C)c4c3)c3cn(C4(C(F)F)CC4)nn3)c12` [Example 571]: in assay [1] (setting [4]), the 50% effective concentration (EC50) was 0.077 µM.

Turning to `CC(C)(C)CNc1c(C#N)cnc2c(F)cc(N[C@H](c3cn(C4(C(F)(F)F)CC4)nn3)c3cccc4ncsc34)cc12` [Example 455, (S)-6-((benzo[d]thiazol-7-yl(1-(1-(trifluoromethyl)cyclopropyl)-1H-1,2,3-triazol-4-yl)methyl)amino)-8-fluoro-4-(neopentylamino)quinoline-3-carbonitrile], the concentration giving a half-maximal response (EC50) in assay [1] (setting [3]) was found to be 0.222 µM.

For the compound `[2H]C([2H])(Nc1c(C#N)cnc2c(Cl)cc(N[C@@]([2H])(c3ccc(F)nc3)c3cn(C4CC4)nn3)cc12)C(C)(C)C` [Example 112, (S)-8-chloro-6-(((1-cyclopropyl-1H-1,2,3-triazol-4-yl)(6-fluoropyridin-3-yl)methyl-d)amino)-4-((2,2-dimethylpropyl-1,1-d2)amino)quinoline-3-carbonitrile], the EC50 in assay [1] (setting [3]) was found to be 0.061 µM.

On to `Cc1ncsc1[C@H](Nc1cc(Cl)c2ncc(C#N)c(NCC(C)(C)C)c2c1)c1cn(C2(C(F)(F)F)CC2)nn1` [Example 701, (R)-8-chloro-6-(((4-methylthiazol-5-yl)(1-(1-(trifluoromethyl)cyclopropyl)-1H-1,2,3-triazol-4-yl)methyl)airiino)-4-(neopentylamino)quinoline-3-carbonitrile], for which the EC50 in assay [1] (setting [4]) worked out at 0.147 µM.

`[2H]C(Nc1cc(Cl)c2ncc(C#N)c(NCC(C)(C)C)c2c1)(c1cn(C2CC2)nn1)c1ccc(F)nc1C` (centres unmarked) [Example 111, 8-chloro-6-(((1-cyclopropyl-1H-1,2,3-triazol-4-yl)(6-fluoro-2-methylpyridin-3-yl)methyl-d)amino)-4-(neopentylamino)quinoline-3-carbonitrile]: the EC50 in assay [1] (setting [3]) is 0.077 µM.

In the case of `Cn1ncc2c([C@H](Nc3cc(Cl)c4ncc(C#N)c(NCC(C)(C)C)c4c3)c3cn(C4CC4)nn3)cccc21` [Example 423, (S)-8-chloro-6-(((1-cyclopropyl-1H-1,2,3-triazol-4-yl)(1-methyl-1H-indazol-4-yl)methyl)amino)-4-(neopentylamino)-quinoline-3-carbonitrile], in assay [1] (setting [3]), the EC50 was 0.071 µM.

The IC50 is the concentration needed to halve the response being measured. With `N#Cc1cnc2c(Cl)cc(N[C@@H](c3cccnc3)c3cn(CC(F)(F)F)nn3)cc2c1Nc1cnc(F)c(F)c1` [Example 209, (S)-8-chloro-4-((5,6-difluoropyridin-3-yl)amino)-6-((pyridin-3-yl(1-(2,2,2-trifluoroethyl)-1H-1,2,3-triazol-4-yl)methyl)amino)quinoline-3-carbonitrile], the IC50 in assay [2] (setting [5]) worked out at 0.023 µM.

The compound `Cc1nc(F)ccc1[C@H](Nc1cc(Cl)c2ncc(C#N)c(N[C@H](C)C(C)(C)C)c2c1)c1cn(C2(C(F)(F)F)CC2)nn1` [Example 582, 8-chloro-4-(((R)-3,3-dimethylbutan-2-yl)amino)-6-(((S)-(6-fluoro-2-methylpyridin-3-yl)(1-(1-(trifluoromethyl)cyclopropyl)-1H-1,2,3-triazol-4-yl)methyl)amino)quinoline-3-carbonitrile] had a concentration for half-maximal inhibition (IC50) in assay [2] (setting [5]) of 0.014 µM.

In the case of `Cc1scnc1[C@H](Nc1cc(Cl)c2ncc(C#N)c(Nc3ccc(F)c(Cl)c3)c2c1)c1cn(C2CCN(C(C)(C)C)CC2)nn1` [Example 137, (S)-6-(((1-(1-(tert-butyl)piperidin-4-yl)-1H-1,2,3-triazol-4-yl)(5-methylthiazol-4-yl)methyl)amino)-8-chloro-4-((3-chloro-4-fluorophenyl)amino)quinoline-3-carbonitrile], the IC50 in assay [2] (setting [5]) is 0.015 µM.

Take `Cc1ncsc1[C@H](Nc1cc(Cl)c2ncc(C#N)c(Nc3ccc(Cl)c(Cl)c3F)c2c1)c1cn(C2COC2)nn1` [Example 217, (R)-8-chloro-4-((3,4-dichloro-2-fluorophenyl)amino)-6-(((4-methylthiazol-5-yl)(1-(oxetan-3-yl)-1H-1,2,3-triazol-4-yl)methyl)amino)quinoline-3-carbonitrile]: 0.012 µM corresponded to half-maximal inhibition in assay [2] (setting [5]) (IC50).

In the case of `COc1c(C(Nc2cc(C#N)c3ncc(C#N)c(NCC(C)(C)C)c3c2)c2ccc(F)nc2C)nnn1C` (centres unmarked) [Example 908, 6-(((6-fluoro-2-methylpyridin-3-yl)(5-methoxy-1-methyl-1H-1,2,3-triazol-4-yl)methyl)amino)-4-(neopentyl-amino)quinoline-3,8-dicarbonitrile], in assay [2] (setting [6]), the concentration for half-maximal inhibition (IC50) came to 0.012 µM.

In the case of `CC(C)n1cc([C@@H](Nc2cc(Cl)c3ncc(C#N)c(Nc4ccc(F)c(Cl)c4)c3c2)c2cocn2)nn1` [Example 312, (S)-8-chloro-4-((3-chloro-4-fluorophenyl)amino)-6-(((1-isopropyl-1H-1,2,3-triazol-4-yl)(oxazol-4-yl)methyl)amino)quinoline-3-carbonitrile], in assay [2] (setting [5]), the IC50 was found to be 0.013 µM.

In assay [2] (setting [5]), `CC(C)(C)CNc1c(C#N)cnc2c(Cl)cc(N[C@H](c3cn(C(C)(C)C(F)F)nn3)c3cccc4ncccc34)cc12` [Example 693, (S)-8-chloro-6-(((1-(1,1-difluoro-2-methylpropan-2-yl)-1H-1,2,3-triazol-4-yl)(quinolin-5-yl)methyl)amino)-4-(neopentylamino)quinoline-3-carbonitrile] displayed an IC50 of 0.015 µM.

As to `Cc1cc(Cl)ncc1[C@H](Nc1cc(Cl)c2ncc(C#N)c(Nc3ccc(F)c(Cl)c3)c2c1)c1cn(C2CCN(C(C)(C)C)CC2)nn1` [Example 289], the IC50 in assay [2] (setting [7]) turned out to be 0.037 µM.

In turn, `COc1ccc([C@H](Nc2cc(C#N)c3ncc(C#N)c(NCC(C)(C)C)c3c2)c2cn(C3(C(F)(F)F)CC3)nn2)cn1` [Example 905, (S)-6-(((6-methoxypyridin-3-yl)(1-(1-(trifluoromethyl)cyclopropyl)-1H-1,2,3-triazol-4-yl)methyl)amino)-4-(neopentylamino)quinoline-3,8-dicarbonitrile] gave an IC50 in assay [2] (setting [6]) of 0.015 µM.

The compound `Cc1ncoc1[C@H](Nc1cc(C#N)c2ncc(C#N)c(NCC(C)(C)C)c2c1)c1cn(C2(C(F)F)CC2)nn1` [Example 657, (R)-6-(((1-(1-(difluoromethyl)-cyclopropyl)-1H-1,2,3-triazol-4-yl)(4-methyloxazol-5-yl)methyl)amino)-4-(neopentylamino)quinoline-3,8-dicarbonitrile] returned an IC50 in assay [2] (setting [5]) of 0.037 µM.

`CC(C)(C)N1CCC(n2cc([C@@H](Nc3cc(Cl)c4ncc(C#N)c(Nc5cnc(F)c(F)c5)c4c3)c3cccnc3)nn2)CC1` [Example 208]: the IC50 in assay [2] (setting [7]) stood at 0.012 µM.
